We go through three molecules from ChEMBL document CHEMBL1137610, “Development of novel enkephalin analogues that have enhanced opioid activities at both mu and delta opioid receptors” (2007).

Sequences of proteins named here, by UniProt entry; tags and fusion partners are left off. Residues count along the entry.
UniProt P41143, whole entry, looked up: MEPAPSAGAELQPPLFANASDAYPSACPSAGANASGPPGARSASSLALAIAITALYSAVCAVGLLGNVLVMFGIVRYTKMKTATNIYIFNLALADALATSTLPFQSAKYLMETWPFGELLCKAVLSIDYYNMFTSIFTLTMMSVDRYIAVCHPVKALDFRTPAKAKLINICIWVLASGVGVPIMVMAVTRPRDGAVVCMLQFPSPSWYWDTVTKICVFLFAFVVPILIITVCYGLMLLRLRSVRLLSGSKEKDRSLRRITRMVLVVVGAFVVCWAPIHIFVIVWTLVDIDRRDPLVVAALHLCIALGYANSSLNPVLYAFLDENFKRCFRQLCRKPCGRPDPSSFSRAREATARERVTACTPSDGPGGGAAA
UniProt Q8CGM4, 1-400: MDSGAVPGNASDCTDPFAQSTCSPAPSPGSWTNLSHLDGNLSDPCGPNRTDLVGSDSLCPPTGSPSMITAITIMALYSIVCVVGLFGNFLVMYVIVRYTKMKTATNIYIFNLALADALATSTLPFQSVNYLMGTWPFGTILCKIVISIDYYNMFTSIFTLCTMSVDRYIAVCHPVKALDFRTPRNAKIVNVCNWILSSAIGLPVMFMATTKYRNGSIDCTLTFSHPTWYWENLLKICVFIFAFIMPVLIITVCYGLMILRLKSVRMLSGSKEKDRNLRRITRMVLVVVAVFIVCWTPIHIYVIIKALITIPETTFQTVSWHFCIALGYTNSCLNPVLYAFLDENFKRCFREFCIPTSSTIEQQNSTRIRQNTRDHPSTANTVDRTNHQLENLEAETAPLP
UniProt P33535, whole entry, looked up: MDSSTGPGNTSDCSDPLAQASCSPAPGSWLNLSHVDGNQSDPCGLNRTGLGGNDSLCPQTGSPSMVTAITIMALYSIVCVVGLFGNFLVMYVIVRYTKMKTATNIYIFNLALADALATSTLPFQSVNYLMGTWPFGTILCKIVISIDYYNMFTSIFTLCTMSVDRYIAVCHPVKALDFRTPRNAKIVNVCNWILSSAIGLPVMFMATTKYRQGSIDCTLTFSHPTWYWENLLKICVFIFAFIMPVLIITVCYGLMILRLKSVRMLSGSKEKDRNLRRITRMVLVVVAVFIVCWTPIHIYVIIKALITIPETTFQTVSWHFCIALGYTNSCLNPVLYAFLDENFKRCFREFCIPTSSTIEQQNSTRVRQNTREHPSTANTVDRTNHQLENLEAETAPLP
UniProt P32300, whole entry, looked up: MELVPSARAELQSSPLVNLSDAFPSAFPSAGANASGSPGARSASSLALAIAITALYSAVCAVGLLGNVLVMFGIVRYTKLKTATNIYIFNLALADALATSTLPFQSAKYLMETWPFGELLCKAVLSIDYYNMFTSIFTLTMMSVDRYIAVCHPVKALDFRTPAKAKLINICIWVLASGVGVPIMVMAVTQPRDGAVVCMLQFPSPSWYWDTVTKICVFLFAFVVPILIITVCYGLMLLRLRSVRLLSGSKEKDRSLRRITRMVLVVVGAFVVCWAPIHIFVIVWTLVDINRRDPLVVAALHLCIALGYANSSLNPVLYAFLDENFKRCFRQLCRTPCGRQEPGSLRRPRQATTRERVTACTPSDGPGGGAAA

In assay [1] the target is T1, Delta-type opioid receptor (Homo sapiens, UniProt P41143). Nature of the assay: Displacement of [3H]DPDPE from human delta-opioid receptor transfected in HN9.10 cells after 3 hrs.
A further assay addresses Mu-opioid receptor (Cavia porcellus, UniProt Q8CGM4). Nature of the assay: Agonist activity at guinea pig mu-opioid receptor by GPI assay.
Assay [2] has as its target T2, Mu-type opioid receptor (Rattus norvegicus, UniProt P33535). Kind of assay: Agonist activity at rat mu-opioid receptor expressed in CHO cells after 90 mins by [35S]GTP-gamma-S assay. (In general: Binding of GTPγS marks nucleotide exchange on a G protein.)
The target in assay [3] is T1, Delta-type opioid receptor. Kind of assay: Agonist activity at human delta-opioid receptor expressed in CHO cells after 90 mins by [35S]GTP-gamma-S assay.
Assay [4] deals with Delta-type opioid receptor (Mus musculus, UniProt P32300). Nature of the assay: Agonist activity at mouse delta-opioid receptor by MVD assay.
Assay [5] has as its target T2, Mu-type opioid receptor. Kind of assay: Displacement of [3H]DAMGO from rat mu-opioid receptor transfected in HN9.10 cells after 3 hrs. Background: Displacement assays read how much labelled ligand stays bound in the presence of the test substance.

As for `C[C@@H](NC(=O)[C@@H](N)Cc1ccc(O)cc1)C(=O)NCC(=O)N[C@@H](Cc1ccccc1)C(=O)NNC(=O)CCC(=O)NC1CCN(CCc2ccccc2)CC1`, the values for the inhibition constant (Ki) (in assay [1]; at Mu-type opioid receptor [5]) were 3.7 nM and 1.2 nM, respectively. Besides, the Log IC50 is -8.12 in assay [1] and -8.6 on Mu-type opioid receptor [5]. Further, the 50% inhibitory concentration (IC50) on Mu-opioid receptor stood at 47 nM; in assay [4] it was 250 nM. Moreover, the concentration giving a half-maximal response (EC50) at Mu-type opioid receptor [2] amounted to 16 nM; in assay [3], 29 nM.
With `C[C@@H](NC(=O)[C@@H](N)Cc1ccc(O)cc1)C(=O)NCC(=O)N[C@@H](Cc1ccccc1)C(=O)NC1CCN(CCc2ccccc2)CC1`, the Ki (in assay [1]; at Mu-type opioid receptor [5]) was 14 nM throughout. Moreover, the Log IC50 in assay [1] was -7.51; at Mu-type opioid receptor [5] it was -7.52. The IC50 on Mu-opioid receptor came out at 160 nM; in assay [4], 380 nM.
For the molecule `C[C@@H](NC(=O)[C@@H](N)Cc1ccc(O)cc1)C(=O)NCC(=O)N[C@@H](Cc1ccccc1)C(N)=O`, the half-maximal inhibitory concentration (IC50) at Mu-opioid receptor worked out at 47 nM; in assay [4] it was 120 nM.

What is called Ki is a dissociation constant, usually derived from enzyme kinetics or from competition with a known ligand. Low readings indicate a stronger hold on the target, high ones a looser hold on the target. By IC50 is commonly meant the concentration that inhibits the measured activity by half. Higher therefore signals lower potency. The term EC50 denotes the midpoint of the concentration-response curve.
